Results reported in US7060808B1, “Humanized anti-EGF receptor monoclonal antibody” (ImClone Systems Incorporated, priority 1995, dated 2006).

Tests used:
[1] = test system: cultured EGFR-expressing tumor lines; conditions: cited from earlier work
[2] = test system: EGFR-expressing tumor xenografts; conditions: mouse; cited from earlier work
[3] = test system: A431, KB and MDA-468 cells; experiment: C225-DOX inhibition of proliferation, EGFR expressing cell lines (3H-thymidine, WST-1); type: cell-based
Method: (§1) EGF receptor expression was verified by FACS analysis using C225 and C225-DOX conjugate. Assays were conducted over a 72 h incubation period using ^3[H]-thymidine and WST-1 as a read out. […] Inhibition of cell proliferation by C225DOX was also seen in EGFRc nonexpressing cell lines at higher doses.

Molt-4 and SK-MEL-28 = experiment: C225-DOX inhibition of proliferation, EGFR non-expressing cell lines; type: cell-based
Method: as §1

Row | Substance | growth of cultured EGFR-expressing tumor lines [1] | growth of these tumors in vivo as xenografts [2] | inhibition of cell proliferation compared to no treatment or hIgG1 controls ([3]; 72 h incubation) | higher inhibition versus equimolar doxorubicin alone or mixtures of C225 and doxorubicin ([3]; equimolar concentrations) | inhibition in EGFRc-negative cell lines lower than in EGFRc-positive cell lines (Molt-4 and SK-MEL-28)
1 | 225: murine monoclonal antibody that binds to the EGF receptor; hybridoma ATCC HB 11935 [compound 225] | able to inhibit the growth | able to inhibit the growth | – | – | –
2 | C225-DOX | – | – | high inhibition of cell proliferation | 4–5 fold | 5–15 fold
